# Reference: patent publication US6875581 (GENOPIA BIOMEDICAL, dated 2005)
# B1: RII-Fluophos (peptide)
# peptide: DLDVPIPGRFDRRVSVAAE
# modifications: Ser-15 coupled with fluorescein-phosphoamidit (phosphoester with fluorescein at Ser-15)
# notes: Synthetic peptide; It was not converted by calcineurin; also called Fluophos-RII-peptide; fluorescent labeled RII-peptide
# Molecular target: recombinant calcineurin-A/B heterodimer (isoform not given) (human)
# Assay: laser fluorescence correlation spectroscopy (FCS); 10 nM Fluophos-RII-peptide in solution, calcineurin added
binder,measurement,value
B1,Kd,600 nM
